The text below walks through data of US9498467B2, “Treatment of chronic neutrophilic leukemia (CNL) and atypical chronic myeloid leukemia (aCML) by inhibitors of JAK1” (Incyte Corporation, priority 2014, dated 2016).

By UniProt entry, the sequences of proteins in these tests, tags left out. Residues count along the entry.
UniProt P23458, 849-1154: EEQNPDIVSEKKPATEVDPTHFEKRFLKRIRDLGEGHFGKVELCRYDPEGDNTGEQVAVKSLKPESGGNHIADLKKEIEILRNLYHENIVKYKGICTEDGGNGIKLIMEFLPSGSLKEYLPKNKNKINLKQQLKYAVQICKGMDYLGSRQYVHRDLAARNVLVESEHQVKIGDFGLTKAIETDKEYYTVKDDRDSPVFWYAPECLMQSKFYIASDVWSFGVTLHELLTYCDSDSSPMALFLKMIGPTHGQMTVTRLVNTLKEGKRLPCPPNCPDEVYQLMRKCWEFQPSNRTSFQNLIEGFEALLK

In the assay the target is T1, human JAK1 (a.a. 837-1142) (Homo sapiens, UniProt P23458).
T1 construct: human JAK1 (a.a. 837-1142); made in house; host or cells: insect cells (baculovirus)
The assay is described as follows: In vitro JAK kinase assay (HTRF), JAK1. The format is biochemical. Conditions: 1 mM ATP. (In general: In TR-FRET formats the signal depends on donor and acceptor labels being close together.)

Consider `CN(C)Cc1cc(F)cc(OC2CCN(CC(CC#N)n3cc(-c4ncnc5[nH]ccc45)cn3)CC2)c1` (single isomer, unassigned) [Compound 14, 4-(4-{3-[(dimethylamino)methyl]-5-fluorophenoxy}piperidin-1-yl)-3-[4-(7H-pyrrolo[2,3-d]pyrimidin-4-yl)-1H-pyrazol-1-yl]butanenitrile], for which the IC50 – broadly, the concentration at which inhibition is half-maximal – was below 10 nM.
